Source: ChEMBL document CHEMBL4602657, “Design and evaluation of Nrf2 activators with 1,3,4-oxa/thiadiazole core as neuro-protective agents against oxidative stress in PC-12 cells” (Bioorg Med Chem Lett, 2020)

Key:
Format in all cases: cell-based
[1] = target: T1, Nuclear factor erythroid 2-related factor 2 (Homo sapiens) (UniProt Q16236); assay: Activation of Nrf2 in human HepG2-ARE-C8 cells assessed as fold change at 1 uM measured after 12 hrs by luciferase reporter gene assay relative to control
T1 sequence (whole entry): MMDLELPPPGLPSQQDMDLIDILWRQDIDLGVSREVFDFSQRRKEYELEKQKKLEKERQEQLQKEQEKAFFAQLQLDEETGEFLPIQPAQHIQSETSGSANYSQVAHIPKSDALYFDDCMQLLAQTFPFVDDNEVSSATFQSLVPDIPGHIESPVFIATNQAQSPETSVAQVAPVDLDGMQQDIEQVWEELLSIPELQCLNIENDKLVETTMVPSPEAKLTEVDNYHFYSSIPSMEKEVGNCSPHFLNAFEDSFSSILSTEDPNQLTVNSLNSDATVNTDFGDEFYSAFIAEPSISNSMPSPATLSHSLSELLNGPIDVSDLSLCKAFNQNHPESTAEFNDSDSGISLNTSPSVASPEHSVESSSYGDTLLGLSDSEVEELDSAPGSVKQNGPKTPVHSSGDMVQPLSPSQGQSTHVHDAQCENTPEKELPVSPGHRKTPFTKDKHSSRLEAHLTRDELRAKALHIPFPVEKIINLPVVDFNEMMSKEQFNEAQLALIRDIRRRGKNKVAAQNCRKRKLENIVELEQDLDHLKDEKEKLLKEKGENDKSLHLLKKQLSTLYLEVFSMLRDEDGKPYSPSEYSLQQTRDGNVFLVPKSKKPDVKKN

[2] = target: T1, Nuclear factor erythroid 2-related factor 2 (Homo sapiens); assay: Activation of Nrf2 in human HepG2-ARE-C8 cells assessed as fold change at 0.1 uM measured after 12 hrs by luciferase reporter gene assay relative to control
[3] = target: T1, Nuclear factor erythroid 2-related factor 2 (Homo sapiens); assay: Activation of Nrf2 in human HepG2-ARE-C8 cells assessed as fold change at 20 uM measured after 12 hrs by luciferase reporter gene assay relative to control
[4] = target: T1, Nuclear factor erythroid 2-related factor 2 (Homo sapiens); assay: Activation of Nrf2 in human HepG2-ARE-C8 cells assessed as fold change at 10 uM measured after 12 hrs by luciferase reporter gene assay relative to control
[5] = target: T1, Nuclear factor erythroid 2-related factor 2 (Homo sapiens); assay: Activation of Nrf2 in human HepG2-ARE-C8 cells assessed as fold change at 40 uM measured after 12 hrs by luciferase reporter gene assay relative to control
[6] = target: T1, Nuclear factor erythroid 2-related factor 2 (Homo sapiens); assay: Activation of Nrf2 in human HepG2-ARE-C8 cells assessed as fold change at 80 uM measured after 12 hrs by luciferase reporter gene assay relative to control

fold change (FC) [1]: 10.2 | fold change (FC) [2]: 2.49 | fold change (FC) [3]: 27.3 | fold change (FC) [4]: 14.2 | fold change (FC) [5]: 40.8 | fold change (FC) [6]: 44.4
SMILES: Fc1ccc(-c2nc(-c3ccc4nc[nH]c4c3)no2)cc1
